Data taken from ChEMBL document CHEMBL1240346, “AC220 is a uniquely potent and selective inhibitor of FLT3 for the treatment of acute myeloid leukemia (AML)” (Blood, 2009).

Protein sequences, listed by entry. Tags and fused reporters are not part of them.
UniProt P42336, whole entry E542K: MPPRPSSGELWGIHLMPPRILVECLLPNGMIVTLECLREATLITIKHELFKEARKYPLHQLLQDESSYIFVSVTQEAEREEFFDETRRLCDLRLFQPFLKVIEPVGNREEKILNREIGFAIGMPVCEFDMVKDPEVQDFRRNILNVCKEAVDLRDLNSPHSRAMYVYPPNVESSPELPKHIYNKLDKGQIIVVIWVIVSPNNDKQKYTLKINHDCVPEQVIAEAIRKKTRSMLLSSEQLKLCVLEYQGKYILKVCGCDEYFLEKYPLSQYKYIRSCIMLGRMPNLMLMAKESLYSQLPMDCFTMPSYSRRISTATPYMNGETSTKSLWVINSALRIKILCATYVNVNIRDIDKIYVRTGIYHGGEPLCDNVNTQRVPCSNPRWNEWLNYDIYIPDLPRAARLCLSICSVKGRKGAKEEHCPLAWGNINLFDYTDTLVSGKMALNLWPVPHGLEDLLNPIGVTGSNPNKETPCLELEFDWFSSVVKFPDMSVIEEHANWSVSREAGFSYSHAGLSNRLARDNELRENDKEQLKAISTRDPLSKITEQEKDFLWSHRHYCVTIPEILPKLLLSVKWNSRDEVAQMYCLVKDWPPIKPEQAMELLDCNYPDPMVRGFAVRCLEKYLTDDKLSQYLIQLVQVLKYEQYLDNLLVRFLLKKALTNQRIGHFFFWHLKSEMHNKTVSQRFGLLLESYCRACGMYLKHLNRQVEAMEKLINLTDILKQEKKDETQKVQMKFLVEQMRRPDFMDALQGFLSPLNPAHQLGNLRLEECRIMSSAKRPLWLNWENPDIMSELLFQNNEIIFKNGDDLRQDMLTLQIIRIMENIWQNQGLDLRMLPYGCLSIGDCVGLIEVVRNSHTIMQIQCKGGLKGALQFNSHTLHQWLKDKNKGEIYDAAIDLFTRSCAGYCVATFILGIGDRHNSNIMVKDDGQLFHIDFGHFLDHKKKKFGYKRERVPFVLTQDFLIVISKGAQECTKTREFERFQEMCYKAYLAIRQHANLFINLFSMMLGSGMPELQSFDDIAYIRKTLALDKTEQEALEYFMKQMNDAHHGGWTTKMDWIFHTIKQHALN
UniProt P42336, whole entry: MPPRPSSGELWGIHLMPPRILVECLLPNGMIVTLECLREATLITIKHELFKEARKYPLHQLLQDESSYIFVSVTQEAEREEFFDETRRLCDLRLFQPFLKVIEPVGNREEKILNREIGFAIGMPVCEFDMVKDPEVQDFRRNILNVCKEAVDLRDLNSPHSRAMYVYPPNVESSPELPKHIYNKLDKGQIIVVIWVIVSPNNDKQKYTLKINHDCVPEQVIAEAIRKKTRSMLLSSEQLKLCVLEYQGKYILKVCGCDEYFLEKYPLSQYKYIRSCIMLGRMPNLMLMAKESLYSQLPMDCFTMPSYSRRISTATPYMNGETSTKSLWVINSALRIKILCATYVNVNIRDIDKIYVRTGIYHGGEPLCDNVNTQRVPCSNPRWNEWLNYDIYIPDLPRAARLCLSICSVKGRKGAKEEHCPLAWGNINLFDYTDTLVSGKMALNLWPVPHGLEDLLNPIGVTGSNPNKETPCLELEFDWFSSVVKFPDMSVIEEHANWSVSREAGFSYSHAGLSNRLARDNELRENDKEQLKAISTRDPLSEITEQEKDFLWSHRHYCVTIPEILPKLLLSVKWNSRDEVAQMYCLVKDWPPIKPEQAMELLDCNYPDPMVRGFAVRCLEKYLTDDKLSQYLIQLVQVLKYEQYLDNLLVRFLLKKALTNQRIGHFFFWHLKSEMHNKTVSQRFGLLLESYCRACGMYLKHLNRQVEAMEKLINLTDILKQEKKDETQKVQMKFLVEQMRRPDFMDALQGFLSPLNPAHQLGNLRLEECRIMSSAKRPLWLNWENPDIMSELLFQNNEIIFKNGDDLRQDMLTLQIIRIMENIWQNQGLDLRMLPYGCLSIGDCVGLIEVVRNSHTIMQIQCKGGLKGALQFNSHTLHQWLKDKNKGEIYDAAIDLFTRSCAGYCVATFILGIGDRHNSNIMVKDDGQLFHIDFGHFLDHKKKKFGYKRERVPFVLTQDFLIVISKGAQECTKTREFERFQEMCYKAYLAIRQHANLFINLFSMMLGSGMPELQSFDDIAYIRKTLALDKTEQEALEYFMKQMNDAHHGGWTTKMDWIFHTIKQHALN
UniProt P42336, whole entry E545A: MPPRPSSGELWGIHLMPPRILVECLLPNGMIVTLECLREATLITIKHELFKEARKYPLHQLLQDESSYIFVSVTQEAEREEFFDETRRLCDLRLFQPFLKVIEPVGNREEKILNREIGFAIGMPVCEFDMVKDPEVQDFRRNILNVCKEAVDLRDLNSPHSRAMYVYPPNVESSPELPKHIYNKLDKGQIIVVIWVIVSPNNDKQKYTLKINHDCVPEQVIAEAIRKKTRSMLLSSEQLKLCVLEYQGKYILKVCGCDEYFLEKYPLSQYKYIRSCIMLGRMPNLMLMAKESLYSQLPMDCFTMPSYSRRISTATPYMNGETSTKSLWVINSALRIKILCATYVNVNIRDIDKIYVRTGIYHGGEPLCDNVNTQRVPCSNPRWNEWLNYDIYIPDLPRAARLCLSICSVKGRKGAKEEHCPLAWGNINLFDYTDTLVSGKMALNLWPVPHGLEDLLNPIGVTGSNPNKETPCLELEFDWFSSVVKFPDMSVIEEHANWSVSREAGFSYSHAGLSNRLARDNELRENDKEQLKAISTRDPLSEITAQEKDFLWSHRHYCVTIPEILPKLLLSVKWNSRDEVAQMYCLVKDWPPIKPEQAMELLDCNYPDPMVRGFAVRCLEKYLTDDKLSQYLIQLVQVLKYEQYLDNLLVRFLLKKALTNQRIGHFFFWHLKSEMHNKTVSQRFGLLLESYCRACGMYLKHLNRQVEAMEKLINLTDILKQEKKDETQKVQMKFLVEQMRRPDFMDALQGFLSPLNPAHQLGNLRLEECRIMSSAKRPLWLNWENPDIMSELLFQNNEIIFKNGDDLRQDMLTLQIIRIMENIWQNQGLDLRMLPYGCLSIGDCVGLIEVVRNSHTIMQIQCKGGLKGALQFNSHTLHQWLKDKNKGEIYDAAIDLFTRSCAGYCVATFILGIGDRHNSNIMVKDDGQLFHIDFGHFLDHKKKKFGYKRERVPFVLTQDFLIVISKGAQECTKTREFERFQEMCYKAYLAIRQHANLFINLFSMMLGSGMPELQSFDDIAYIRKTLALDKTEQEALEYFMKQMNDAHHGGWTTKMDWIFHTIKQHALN
UniProt P42336, whole entry E545K: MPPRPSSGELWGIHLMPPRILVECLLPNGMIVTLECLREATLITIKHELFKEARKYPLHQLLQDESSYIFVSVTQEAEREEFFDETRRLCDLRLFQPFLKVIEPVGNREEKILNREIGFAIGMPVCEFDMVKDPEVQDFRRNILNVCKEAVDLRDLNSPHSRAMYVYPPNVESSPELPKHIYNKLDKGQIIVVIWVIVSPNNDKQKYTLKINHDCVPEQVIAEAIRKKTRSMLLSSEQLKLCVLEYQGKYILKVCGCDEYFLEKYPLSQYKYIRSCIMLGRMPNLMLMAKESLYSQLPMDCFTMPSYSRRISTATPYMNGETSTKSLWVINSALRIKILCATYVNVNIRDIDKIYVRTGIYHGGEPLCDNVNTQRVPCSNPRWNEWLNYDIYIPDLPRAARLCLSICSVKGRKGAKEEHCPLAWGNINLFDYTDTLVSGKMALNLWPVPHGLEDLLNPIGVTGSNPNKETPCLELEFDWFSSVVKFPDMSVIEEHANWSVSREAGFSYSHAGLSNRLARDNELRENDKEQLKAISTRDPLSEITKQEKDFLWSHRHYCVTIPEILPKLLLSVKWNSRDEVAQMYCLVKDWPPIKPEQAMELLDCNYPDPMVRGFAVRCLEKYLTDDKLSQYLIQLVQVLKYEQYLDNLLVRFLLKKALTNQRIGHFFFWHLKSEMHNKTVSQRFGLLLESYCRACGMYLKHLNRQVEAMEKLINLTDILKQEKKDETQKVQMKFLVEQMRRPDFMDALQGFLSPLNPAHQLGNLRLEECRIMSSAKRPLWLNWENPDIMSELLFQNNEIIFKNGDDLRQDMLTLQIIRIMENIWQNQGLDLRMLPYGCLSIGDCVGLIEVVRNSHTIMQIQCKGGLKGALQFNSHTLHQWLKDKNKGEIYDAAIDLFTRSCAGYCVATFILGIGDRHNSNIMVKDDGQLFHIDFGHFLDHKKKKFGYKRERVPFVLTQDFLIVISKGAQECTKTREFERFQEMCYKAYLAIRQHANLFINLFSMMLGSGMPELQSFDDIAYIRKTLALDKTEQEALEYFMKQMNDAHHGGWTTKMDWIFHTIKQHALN
UniProt P42336, whole entry M1043I: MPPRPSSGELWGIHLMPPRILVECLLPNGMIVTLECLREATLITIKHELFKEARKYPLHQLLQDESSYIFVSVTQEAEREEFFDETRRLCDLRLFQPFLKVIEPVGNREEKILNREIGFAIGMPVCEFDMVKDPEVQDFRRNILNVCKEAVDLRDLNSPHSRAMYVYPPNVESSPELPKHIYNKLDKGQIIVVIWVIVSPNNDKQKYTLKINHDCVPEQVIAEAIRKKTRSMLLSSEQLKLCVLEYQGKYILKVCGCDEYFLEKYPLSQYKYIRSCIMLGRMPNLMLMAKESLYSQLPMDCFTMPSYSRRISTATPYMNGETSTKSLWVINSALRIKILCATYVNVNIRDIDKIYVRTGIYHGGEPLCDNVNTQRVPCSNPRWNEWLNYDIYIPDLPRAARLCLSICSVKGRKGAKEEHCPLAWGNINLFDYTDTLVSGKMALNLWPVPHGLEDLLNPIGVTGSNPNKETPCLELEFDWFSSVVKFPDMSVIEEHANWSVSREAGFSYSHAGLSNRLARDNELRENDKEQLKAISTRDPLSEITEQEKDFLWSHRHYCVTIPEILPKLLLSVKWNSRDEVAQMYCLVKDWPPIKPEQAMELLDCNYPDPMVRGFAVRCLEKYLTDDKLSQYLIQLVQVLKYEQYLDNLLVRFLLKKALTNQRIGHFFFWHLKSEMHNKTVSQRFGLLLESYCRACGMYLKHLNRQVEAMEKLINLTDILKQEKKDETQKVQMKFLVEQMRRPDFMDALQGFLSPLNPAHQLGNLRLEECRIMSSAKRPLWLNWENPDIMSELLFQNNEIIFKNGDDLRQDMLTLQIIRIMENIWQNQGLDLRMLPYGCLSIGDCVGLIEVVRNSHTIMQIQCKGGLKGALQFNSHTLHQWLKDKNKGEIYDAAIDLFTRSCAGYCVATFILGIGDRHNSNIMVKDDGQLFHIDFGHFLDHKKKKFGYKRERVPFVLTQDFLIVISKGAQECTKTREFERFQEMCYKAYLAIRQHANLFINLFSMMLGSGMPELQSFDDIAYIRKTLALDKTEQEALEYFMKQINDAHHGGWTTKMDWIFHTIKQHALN
UniProt P42336, whole entry H1047Y: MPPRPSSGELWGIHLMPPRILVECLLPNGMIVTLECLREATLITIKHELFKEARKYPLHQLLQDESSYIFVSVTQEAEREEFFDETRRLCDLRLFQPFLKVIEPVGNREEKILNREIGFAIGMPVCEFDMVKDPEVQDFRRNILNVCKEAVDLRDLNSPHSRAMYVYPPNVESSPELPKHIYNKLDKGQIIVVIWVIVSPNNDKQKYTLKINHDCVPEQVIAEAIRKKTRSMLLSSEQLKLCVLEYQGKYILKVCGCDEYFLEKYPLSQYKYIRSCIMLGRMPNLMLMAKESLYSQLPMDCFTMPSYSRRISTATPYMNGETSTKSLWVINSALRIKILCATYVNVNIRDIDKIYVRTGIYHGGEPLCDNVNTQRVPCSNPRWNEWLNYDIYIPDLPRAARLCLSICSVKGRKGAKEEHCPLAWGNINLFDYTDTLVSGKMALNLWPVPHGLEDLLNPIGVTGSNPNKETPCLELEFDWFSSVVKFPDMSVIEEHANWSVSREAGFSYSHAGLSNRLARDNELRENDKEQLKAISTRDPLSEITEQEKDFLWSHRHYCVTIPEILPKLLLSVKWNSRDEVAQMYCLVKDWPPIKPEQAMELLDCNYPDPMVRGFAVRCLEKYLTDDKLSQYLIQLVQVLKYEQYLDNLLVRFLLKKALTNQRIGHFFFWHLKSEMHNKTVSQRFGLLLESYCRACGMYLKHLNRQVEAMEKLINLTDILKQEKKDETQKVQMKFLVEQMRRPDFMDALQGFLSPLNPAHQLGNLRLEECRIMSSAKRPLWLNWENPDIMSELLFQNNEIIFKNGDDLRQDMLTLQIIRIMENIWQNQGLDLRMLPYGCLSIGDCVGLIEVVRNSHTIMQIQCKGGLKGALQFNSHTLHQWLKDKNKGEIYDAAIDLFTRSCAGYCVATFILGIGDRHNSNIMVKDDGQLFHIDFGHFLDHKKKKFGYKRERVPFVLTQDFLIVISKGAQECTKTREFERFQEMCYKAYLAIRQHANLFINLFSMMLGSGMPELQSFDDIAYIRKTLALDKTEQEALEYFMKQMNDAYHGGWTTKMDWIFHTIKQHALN

Columns and labels:
[1] = biological target: Phosphatidylinositol 4,5-bisphosphate 3-kinase catalytic subunit alpha isoform (Homo sapiens, UniProt P42336, E542K)
Ephrin type-B receptor 4 = Ephrin type-B receptor 4 (Homo sapiens, UniProt P54760)
[2] = biological target: Cyclin-dependent kinase 11A (Homo sapiens, UniProt Q9UQ88)
[3] = biological target: Serine/threonine-protein kinase 10 (Homo sapiens, UniProt O94804)
[4] = biological target: Receptor-interacting serine/threonine-protein kinase 1 (Homo sapiens, UniProt Q13546)
[5] = biological target: Phosphatidylinositol 4,5-bisphosphate 3-kinase catalytic subunit alpha isoform (Homo sapiens, UniProt P42336)
[6] = biological target: Mitogen-activated protein kinase 12 (Homo sapiens, UniProt P53778)
[7] = biological target: Receptor-type tyrosine-protein kinase FLT3 (Homo sapiens, UniProt P36888, N841I)
[8] = biological target: Cyclin-dependent kinase-like 5 (Homo sapiens, UniProt O76039)
[9] = biological target: Receptor-type tyrosine-protein kinase FLT3 (Homo sapiens, UniProt P36888, K663Q)
[10] = biological target: Phosphatidylinositol 4,5-bisphosphate 3-kinase catalytic subunit alpha isoform (Homo sapiens, UniProt P42336, E545A)
[11] = biological target: Myosin light chain kinase 2, skeletal/cardiac muscle (Homo sapiens, UniProt Q9H1R3)
[12] = biological target: Tyrosine-protein kinase JAK3 (Homo sapiens, UniProt P52333)
[13] = biological target: Calcium/calmodulin-dependent protein kinase type II subunit beta (Homo sapiens, UniProt Q13554)
[14] = biological target: Serine/threonine-protein kinase MAK (Homo sapiens, UniProt P20794)
Ephrin type-A receptor 2 = Ephrin type-A receptor 2 (Homo sapiens, UniProt P29317)
[15] = biological target: Tyrosine-protein kinase Blk (Homo sapiens, UniProt P51451)
[16] = biological target: Homeodomain-interacting protein kinase 3 (Homo sapiens, UniProt Q9H422)
[17] = biological target: Dual specificity tyrosine-phosphorylation-regulated kinase 1B (Homo sapiens, UniProt Q9Y463)
[18] = biological target: Receptor-type tyrosine-protein kinase FLT3 (Homo sapiens, UniProt P36888, D835Y)
[19] = biological target: Vascular endothelial growth factor receptor 2 (Homo sapiens, UniProt P35968)
[20] = biological target: Serine/threonine-protein kinase pim-1 (Homo sapiens, UniProt P11309)
[21] = biological target: ALK tyrosine kinase receptor (Homo sapiens, UniProt Q9UM73)
[22] = biological target: MAP kinase-interacting serine/threonine-protein kinase 1 (Homo sapiens, UniProt Q9BUB5)
[23] = biological target: Activin receptor type-1-like (Homo sapiens, UniProt P37023)
[24] = biological target: Dual specificity protein kinase TTK (Homo sapiens, UniProt P33981)
[25] = biological target: Serine/threonine-protein kinase 25 (Homo sapiens, UniProt O00506)
[26] = biological target: Tyrosine-protein kinase Srms (Homo sapiens, UniProt Q9H3Y6)
[27] = biological target: Cyclin-dependent kinase 7 (Homo sapiens, UniProt P50613)
[28] = biological target: Phosphatidylinositol 4,5-bisphosphate 3-kinase catalytic subunit alpha isoform (Homo sapiens, UniProt P42336, E545K)
[29] = biological target: Phosphatidylinositol 4,5-bisphosphate 3-kinase catalytic subunit alpha isoform (Homo sapiens, UniProt P42336, M1043I)
Myosin-IIIa = Myosin-IIIa (Homo sapiens, UniProt Q8NEV4)
[30] = biological target: Protein-tyrosine kinase 2-beta (Homo sapiens, UniProt Q14289)
[31] = biological target: T1, Ribosomal protein S6 kinase alpha-5 (Homo sapiens, UniProt O75582)
Ephrin type-B receptor 2 = Ephrin type-B receptor 2 (Homo sapiens, UniProt P29323)
[32] = biological target: Dual specificity testis-specific protein kinase 1 (Homo sapiens, UniProt Q15569)
[33] = biological target: Serine/threonine-protein kinase TAO3 (Homo sapiens, UniProt Q9H2K8)
[34] = biological target: Tyrosine-protein kinase Mer (Homo sapiens, UniProt Q12866)
[35] = biological target: Serine/threonine-protein kinase PAK 5 (Homo sapiens, UniProt Q9P286)
[36] = biological target: MAP kinase-activated protein kinase 5 (Homo sapiens, UniProt Q8IW41)
Activin receptor type-1B = Activin receptor type-1B (Homo sapiens, UniProt P36896)
[37] = biological target: cAMP-dependent protein kinase catalytic subunit PRKX (Homo sapiens, UniProt P51817)
[38] = biological target: Tyrosine-protein kinase CSK (Homo sapiens, UniProt P41240)
[39] = biological target: Interleukin-1 receptor-associated kinase 3 (Homo sapiens, UniProt Q9Y616)
[40] = biological target: Serine/threonine-protein kinase NIM1 (Homo sapiens, UniProt Q8IY84)
[41] = biological target: T1, Ribosomal protein S6 kinase alpha-5; remark: listed apart in the source
[42] = biological target: Phosphatidylinositol 3-kinase C2 domain-containing subunit gamma (Homo sapiens, UniProt O75747)
[43] = biological target: Cyclin-dependent kinase 11B (Homo sapiens, UniProt P21127)
[44] = biological target: Serine/threonine-protein kinase PLK3 (Homo sapiens, UniProt Q9H4B4)
[45] = biological target: Serine/threonine-protein kinase PAK 2 (Homo sapiens, UniProt Q13177)
[46] = biological target: Membrane-associated tyrosine- and threonine-specific cdc2-inhibitory kinase (Homo sapiens, UniProt Q99640)
[47] = biological target: Phosphatidylinositol 4,5-bisphosphate 3-kinase catalytic subunit alpha isoform (Homo sapiens, UniProt P42336, H1047Y)
[48] = biological target: Receptor-type tyrosine-protein kinase FLT3 (Homo sapiens, UniProt P36888, D835H)
[49] = biological target: Dual specificity protein kinase CLK4 (Homo sapiens, UniProt Q9HAZ1)
[50] = biological target: Serine/threonine-protein kinase ULK3 (Homo sapiens, UniProt Q6PHR2)
[51] = biological target: Inhibitor of nuclear factor kappa-B kinase subunit alpha (Homo sapiens, UniProt O15111)
[52] = biological target: Phosphatidylinositol 4,5-bisphosphate 3-kinase catalytic subunit alpha isoform (Homo sapiens, UniProt P42336, H1047L)
[53] = biological target: High affinity nerve growth factor receptor (Homo sapiens, UniProt P04629)
[54] = biological target: Leukocyte tyrosine kinase receptor (Homo sapiens, UniProt P29376)
[55] = biological target: Cyclin-dependent kinase 2 (Homo sapiens, UniProt P24941)
[56] = biological target: Tyrosine-protein kinase receptor UFO (Homo sapiens, UniProt P30530)
[57] = biological target: Insulin-like growth factor 1 receptor (Homo sapiens, UniProt P08069)
[58] = biological target: T2, Ribosomal protein S6 kinase alpha-6 (Homo sapiens, UniProt Q9UK32)
Ephrin type-A receptor 3 = Ephrin type-A receptor 3 (Homo sapiens, UniProt P29320)
[59] = biological target: NUAK family SNF1-like kinase 2 (Homo sapiens, UniProt Q9H093)
[60] = biological target: Epithelial discoidin domain-containing receptor 1 (Homo sapiens, UniProt Q08345)
[61] = biological target: Serine/threonine-protein kinase tousled-like 2 (Homo sapiens, UniProt Q86UE8)
[62] = biological target: Receptor-type tyrosine-protein kinase FLT3 (Homo sapiens, UniProt P36888, ITD)
[63] = biological target: Citron Rho-interacting kinase (Homo sapiens, UniProt O14578)
[64] = biological target: NUAK family SNF1-like kinase 1 (Homo sapiens, UniProt O60285)
[65] = biological target: Serine/threonine-protein kinase MRCK alpha (Homo sapiens, UniProt Q5VT25)
[66] = biological target: Serine/threonine-protein kinase RIO2 (Homo sapiens, UniProt Q9BVS4)
[67] = biological target: T2, Ribosomal protein S6 kinase alpha-6; remark: listed apart in the source
[68] = biological target: Phosphatidylinositol 4,5-bisphosphate 3-kinase catalytic subunit alpha isoform (Homo sapiens, UniProt P42336, Q546K)
[69] = biological target: Calcium/calmodulin-dependent protein kinase type II subunit alpha (Homo sapiens, UniProt Q9UQM7)
[70] = biological target: Serine/threonine-protein kinase 38-like (Homo sapiens, UniProt Q9Y2H1)
[71] = biological target: Phosphatidylinositol 4,5-bisphosphate 3-kinase catalytic subunit alpha isoform (Homo sapiens, UniProt P42336, C420R)
[72] = biological target: STE20/SPS1-related proline-alanine-rich protein kinase (Homo sapiens, UniProt Q9UEW8)
[73] = biological target: Receptor-type tyrosine-protein kinase FLT3 (Homo sapiens, UniProt P36888)

With `CO[C@@H]1[C@H](N(C)C(=O)c2ccccc2)C[C@H]2O[C@]1(C)n1c3ccccc3c3c4c(c5c6ccccc6n2c5c31)C(=O)N[C@H]4O` [CGP-52421] as the compound, how does the Kd [1] read?
The Kd was over 10 µM.

What about the Kd (Ephrin type-B receptor 4) of the same compound?
The Kd was over 10 µM.

What about the Kd [2] of the same compound?
Its Kd is over 10 µM.

And the Kd [3]?
The Kd was over 10 µM.

And the Kd [4]?
Its Kd is over 10 µM.

And the Kd [5]?
Its Kd is over 10 µM.

And the Kd [6]?
The Kd was over 10 µM.

And the Kd [7]?
The Kd was 0.023 µM.

What about the Kd [8] of the same compound?
The Kd was over 10 µM.

And the Kd [9]?
The Kd was 0.019 µM.

And the Kd [10]?
Its Kd is over 10 µM.

What about the Kd [11] of the same compound?
The Kd was over 10 µM.

What about the Kd [12] of the same compound?
Its Kd is 0.037 µM.

And the Kd [13]?
Its Kd is over 10 µM.

And the Kd [14]?
Its Kd is over 10 µM.

And the Kd (Ephrin type-A receptor 2)?
Its Kd is over 10 µM.

And the Kd [15]?
The Kd was 0.6 µM.

What about the Kd [16] of the same compound?
The Kd was over 10 µM.

What about the Kd [17] of the same compound?
The Kd was over 10 µM.

What about the Kd [18] of the same compound?
Its Kd is 0.0079 µM.

What about the Kd [19] of the same compound?
The Kd was over 10 µM.

What about the Kd [20] of the same compound?
Its Kd is 1.8 µM.

What about the Kd [21] of the same compound?
Its Kd is over 10 µM.

And the Kd [22]?
Its Kd is over 10 µM.

And the Kd [23]?
The Kd was over 10 µM.

And the Kd [24]?
Its Kd is over 10 µM.

And the Kd [25]?
The Kd was over 10 µM.

What about the Kd [26] of the same compound?
The Kd was over 10 µM.

And the Kd [27]?
The Kd was over 10 µM.

What about the Kd [28] of the same compound?
Its Kd is over 10 µM.

What about the Kd [29] of the same compound?
Its Kd is over 10 µM.

What about the Kd (Myosin-IIIa) of the same compound?
Its Kd is over 10 µM.

What about the Kd [30] of the same compound?
The Kd was 1.5 µM.

And the Kd [31]?
Its Kd is over 10 µM.

What about the Kd (Ephrin type-B receptor 2) of the same compound?
The Kd was over 10 µM.

And the Kd [32]?
Its Kd is over 10 µM.

And the Kd [33]?
The Kd was over 10 µM.

And the Kd [34]?
Its Kd is over 10 µM.

And the Kd [35]?
The Kd was over 10 µM.

What about the Kd [36] of the same compound?
Its Kd is over 10 µM.

What about the Kd (Activin receptor type-1B) of the same compound?
Its Kd is over 10 µM.

And the Kd [37]?
The Kd was over 10 µM.

What about the Kd [38] of the same compound?
The Kd was over 10 µM.

And the Kd [39]?
The Kd was over 10 µM.

And the Kd [40]?
Its Kd is over 10 µM.

And the Kd [41]?
The Kd was over 10 µM.

And the Kd [42]?
The Kd was over 10 µM.

What about the Kd [43] of the same compound?
The Kd was over 10 µM.

What about the Kd [44] of the same compound?
Its Kd is over 10 µM.

What about the Kd [45] of the same compound?
The Kd was over 10 µM.

And the Kd [46]?
Its Kd is over 10 µM.

What about the Kd [47] of the same compound?
Its Kd is over 10 µM.

What about the Kd [48] of the same compound?
The Kd was 0.0065 µM.

What about the Kd [49] of the same compound?
The Kd was over 10 µM.

And the Kd [50]?
Its Kd is over 10 µM.

And the Kd [51]?
Its Kd is over 10 µM.

And the Kd [52]?
Its Kd is over 10 µM.

And the Kd [53]?
Its Kd is over 10 µM.

And the Kd [54]?
The Kd was over 10 µM.

And the Kd [55]?
The Kd was over 10 µM.

And the Kd [56]?
The Kd was over 10 µM.

What about the Kd [57] of the same compound?
Its Kd is over 10 µM.

And the Kd [58]?
The Kd was over 10 µM.

And the Kd (Ephrin type-A receptor 3)?
Its Kd is over 10 µM.

And the Kd [59]?
Its Kd is 0.44 µM.

What about the Kd [60] of the same compound?
The Kd was over 10 µM.

What about the Kd [61] of the same compound?
The Kd was over 10 µM.

And the IC50 [62]?
The IC50 was 0.16 µM.

What about the Kd [63] of the same compound?
The Kd was over 10 µM.

What about the Kd [64] of the same compound?
Its Kd is 0.11 µM.

What about the Kd [65] of the same compound?
Its Kd is over 10 µM.

And the Kd [66]?
The Kd was over 10 µM.

What about the Kd [67] of the same compound?
Its Kd is over 10 µM.

What about the Kd [68] of the same compound?
Its Kd is over 10 µM.

What about the Kd [69] of the same compound?
The Kd was 0.69 µM.

And the Kd [70]?
The Kd was over 10 µM.

And the Kd [71]?
The Kd was over 10 µM.

And the Kd [72]?
Its Kd is over 10 µM.

What about the IC50 [73] of the same compound?
Its IC50 is 0.35 µM.
